{"sequences": {"note": "Chains of the proteins cited; added tags and fusions are not shown. Residues count along the entry.", "UniProt P01308, 25-56 limits assumed, stated change not applied": "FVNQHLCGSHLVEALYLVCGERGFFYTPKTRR", "UniProt P01308, 90-110 N110G limits assumed": "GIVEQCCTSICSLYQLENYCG"}, "source": "patent US20140235536A1", "about": "“INJECTABLE SOLUTION AT PH 7 COMPRISING AT LEAST ONE BASAL INSULIN THE ISOELECTRIC POINT OF WHICH IS COMPRISED IN 5.8 AND 8.5 AND AN ANIONIC COMPOUND BEARING CARBOXYLATE CHARGES AND HYDROPHOBIC RADICALS” (ADOCIA, priority 2013, published 2014)", "key": {"[1]": {"molecular_target": "insulin glargine and prandial insulin (Homo sapiens, UniProt P01308, INS54RR/N110G)", "details": "pH 7"}, "insulin glargine": {"molecular_target": "T1, insulin glargine (Homo sapiens, UniProt P01308, INS54RR/N110G)", "T1 construct": "substitution of asparagine residue A21 with a glycine residue; elongation of the C-terminal of the B chain of human insulin with two arginine residues; purchased SANOFI-AVENTIS (Lantus®); ELI LILLY (Humalog®)", "assay_type": "physicochemical", "details": "pH 7"}}}
{"substance": "Sodium Maltotriosemethylcarboxylate Functionalized with Dilauryl Aspartate [AA6]", "values": [{"measurement": "Solubilization of insulin glargine/insulin lispro 75/25", "setting": "[1]", "result": "Yes"}, {"measurement": "Insulin glargine solubilization", "setting": "insulin glargine", "result": "Yes"}]}
